Experimental data published in ChEMBL document CHEMBL1137856, “The pharmacophore hypotheses of I(Kr) potassium channel blockers: novel class III antiarrhythmic agents” (Bioorg Med Chem Lett, 2004).

Protein sequences, listed by entry. Tags and fused reporters are not part of them. Lines headed by an entry give the natural chain unless they say otherwise; changes in a name come on top.
UniProt Q12809: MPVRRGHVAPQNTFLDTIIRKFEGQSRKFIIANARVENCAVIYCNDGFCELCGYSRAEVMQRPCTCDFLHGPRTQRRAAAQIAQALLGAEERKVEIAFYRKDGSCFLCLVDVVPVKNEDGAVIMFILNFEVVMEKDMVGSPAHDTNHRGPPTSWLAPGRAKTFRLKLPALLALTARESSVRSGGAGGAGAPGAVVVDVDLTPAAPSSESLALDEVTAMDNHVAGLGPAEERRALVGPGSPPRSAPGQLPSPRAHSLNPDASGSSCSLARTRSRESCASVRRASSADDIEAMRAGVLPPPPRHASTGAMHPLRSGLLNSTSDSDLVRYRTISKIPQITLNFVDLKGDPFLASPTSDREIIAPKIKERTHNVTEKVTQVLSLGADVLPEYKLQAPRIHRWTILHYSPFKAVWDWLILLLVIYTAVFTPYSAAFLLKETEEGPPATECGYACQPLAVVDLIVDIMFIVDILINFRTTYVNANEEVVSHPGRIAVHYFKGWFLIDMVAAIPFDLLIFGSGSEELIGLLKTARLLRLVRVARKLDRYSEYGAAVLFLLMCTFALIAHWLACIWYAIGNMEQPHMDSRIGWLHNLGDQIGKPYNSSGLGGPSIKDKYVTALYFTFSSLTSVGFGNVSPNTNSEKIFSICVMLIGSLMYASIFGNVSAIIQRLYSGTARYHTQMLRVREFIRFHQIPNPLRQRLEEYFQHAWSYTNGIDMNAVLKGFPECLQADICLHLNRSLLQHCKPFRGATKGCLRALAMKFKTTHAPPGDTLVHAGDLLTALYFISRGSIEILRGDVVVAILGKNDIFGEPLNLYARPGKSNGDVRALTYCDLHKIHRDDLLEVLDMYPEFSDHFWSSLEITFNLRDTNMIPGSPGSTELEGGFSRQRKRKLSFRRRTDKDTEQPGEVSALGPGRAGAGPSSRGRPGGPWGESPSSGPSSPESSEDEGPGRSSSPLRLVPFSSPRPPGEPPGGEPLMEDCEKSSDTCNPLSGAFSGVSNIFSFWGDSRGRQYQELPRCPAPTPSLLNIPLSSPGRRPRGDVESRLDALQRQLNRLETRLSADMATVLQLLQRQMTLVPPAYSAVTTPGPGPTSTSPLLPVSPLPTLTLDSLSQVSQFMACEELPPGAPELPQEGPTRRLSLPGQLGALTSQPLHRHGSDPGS

Molecular target: Voltage-gated inwardly rectifying potassium channel KCNH2 (Homo sapiens, UniProt Q12809)

CC(C)COCC(CN(Cc1ccccc1)c1ccccc1)N1CCCC1 (configuration not stated) [BEPRIDIL]
IC50: 430 nM

O[C@H](c1cc(C(F)(F)F)nc2c(C(F)(F)F)cccc12)[C@@H]1CCCCN1 [MEFLOQUINE]
IC50: 2600 nM
